Literature values as cited in patent US12357711B2, “PSMA binding dual mode radiotracer and therapeutic” (Technische Universität München, priority 2019, dated 2025).

By UniProt entry, the sequences of proteins in these tests, tags left out. Residues count along the entry.
UniProt P02768, 25-609: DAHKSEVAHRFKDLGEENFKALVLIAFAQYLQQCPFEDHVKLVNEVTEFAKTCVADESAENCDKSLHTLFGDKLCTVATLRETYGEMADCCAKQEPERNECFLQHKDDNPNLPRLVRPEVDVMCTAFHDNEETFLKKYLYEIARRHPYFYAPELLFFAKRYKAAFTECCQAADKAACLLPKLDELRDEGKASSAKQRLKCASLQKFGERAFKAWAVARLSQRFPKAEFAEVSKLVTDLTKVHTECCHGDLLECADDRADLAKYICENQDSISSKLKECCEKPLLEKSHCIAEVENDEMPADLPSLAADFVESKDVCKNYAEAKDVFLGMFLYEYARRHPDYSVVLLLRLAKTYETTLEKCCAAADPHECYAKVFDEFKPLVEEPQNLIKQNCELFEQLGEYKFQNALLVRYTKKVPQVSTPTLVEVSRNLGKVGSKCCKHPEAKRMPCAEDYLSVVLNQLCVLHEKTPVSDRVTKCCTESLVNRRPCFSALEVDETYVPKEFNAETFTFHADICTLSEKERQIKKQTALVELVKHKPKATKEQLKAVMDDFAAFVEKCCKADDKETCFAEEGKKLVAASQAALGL

Target: T1, human serum albumin (Homo sapiens, UniProt P02768)
T1 construct: purchased H13H-2433
Conditions: reference substances for calibration of the HSA-column; cited from earlier work

## NC(=O)N1c2ccccc2C=Cc2ccccc21 [Carbamazepine]
  Lit. HSA % (literature value of human serum albumin binding): 75.00%
